Biological target: catalytic subunit of cAMP-dependent protein kinase (PKA)
Assay: cell-based or functional assay

Row | IC50, inhibition of PKA phosphotransferase activity [nM] | Substance
1 | 221 | PKI-K252a (from UniProt P61925 6-25) (peptide)
2 | > 1000 | PKI^A21C alkylated with bromoacetamide (from UniProt P61925 6-25) (peptide)

From patent US20110028686A1, “Protein binding miniature proteins” (Yale University, priority 2000, published 2011)
